From patent US10947274B1 (priority 2018, dated 2021)

Chains of the proteins cited; added tags and fusions are not shown. Residues count along the entry.
UniProt P43144, 26-479 limits assumed: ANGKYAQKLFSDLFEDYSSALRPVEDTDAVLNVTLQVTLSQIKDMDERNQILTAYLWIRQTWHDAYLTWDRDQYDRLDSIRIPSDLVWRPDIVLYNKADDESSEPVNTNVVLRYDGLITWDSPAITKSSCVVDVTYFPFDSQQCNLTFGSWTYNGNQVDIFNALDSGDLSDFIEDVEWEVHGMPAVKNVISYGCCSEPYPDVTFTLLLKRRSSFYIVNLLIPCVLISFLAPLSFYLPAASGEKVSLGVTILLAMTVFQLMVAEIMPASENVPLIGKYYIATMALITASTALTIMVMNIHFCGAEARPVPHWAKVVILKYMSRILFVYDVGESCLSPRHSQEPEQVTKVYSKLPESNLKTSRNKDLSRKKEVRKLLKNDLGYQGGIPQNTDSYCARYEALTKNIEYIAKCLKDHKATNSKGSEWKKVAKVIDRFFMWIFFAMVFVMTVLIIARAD
UniProt Q9JLB5, 25-447 limits assumed: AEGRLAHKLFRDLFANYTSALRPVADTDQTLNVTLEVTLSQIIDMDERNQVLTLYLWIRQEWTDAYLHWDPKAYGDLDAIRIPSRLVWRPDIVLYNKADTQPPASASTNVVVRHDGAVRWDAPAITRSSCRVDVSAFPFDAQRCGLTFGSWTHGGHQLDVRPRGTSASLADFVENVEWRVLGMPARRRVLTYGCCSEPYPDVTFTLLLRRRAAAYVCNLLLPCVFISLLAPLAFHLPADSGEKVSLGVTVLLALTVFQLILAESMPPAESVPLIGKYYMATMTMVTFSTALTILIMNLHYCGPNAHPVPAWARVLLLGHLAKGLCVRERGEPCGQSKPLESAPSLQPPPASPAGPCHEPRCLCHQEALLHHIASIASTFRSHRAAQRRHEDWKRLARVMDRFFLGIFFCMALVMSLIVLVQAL

Target: rat α9α10 nAChR (Rattus norvegicus, UniProt P43144+Q9JLB5)
Experiment: cell-based

N=C(N)NCCC[C@H](NC(=O)[C@@H]1CSSC[C@@H]2NC(=O)[C@@H](NC(=O)CN)C[Se][Se]C[C@H](NC(=O)[C@H](CCCNC(=N)N)NC(=O)[C@@H]3CCCN3C(=O)[C@H](CC(=O)O)NC(=O)[C@H](CO)NC2=O)C(=O)N[C@@H](CCCNC(=N)N)C(=O)N[C@@H](Cc2ccc(O)cc2)C(=O)N[C@@H](CCCNC(=N)N)C(=O)N1)C(=O)O [[C2Sec;C8Sec] RgIA]
% block: <10 nM (96.9 ± 1.4% block at 10 nM) | IC50: < 10 nM
